Experimental data: patent US20210290732A1, “GLP-1R and GCGR Agonists, Formulations, and Methods of Use” (Spitfire Pharma LLC, priority 2020, published 2021)

Molecular target: bovine serum albumin (BSA) (bovine) (UniProt P02769)
Assay: cell-based or functional assay

Fold Improvement (EC50 in presence of BSA/EC50 in presence of OVA), GLP-1R assay: 1 fold
Substance: Exendin-4 (from UniProt P26349 48-86) (peptide)
